Measured values published in publication PMC5320394, “Development of a Novel Formulation That Improves Preclinical Bioavailability of Tenofovir Disoproxil Fumarate” (Journal of Pharmaceutical Sciences, 2017).

Assays:
[1] = test system: Caco-2 cell monolayers; settings: 1 mM BNPP, 1 mM PP, 0.05% wt/vol EM1, 0.5 mg/mL TPGS, 10 μM CsA, 2 μM GF918
[2] = rat, in vivo

Q: For “D-a-tocopheryl polyethylene glycol 1000 succinate [TPGS]”, which “Fold Increase, TDF (A to B transport)” value ([1]; Caco-2, versus no inhibitor) is on record?
A: Its value is 1.8 fold.

Q: What about the “Fold Increase, TFV Family (A to B transport)” value ([1]; Caco-2, versus no inhibitor) of the same substance?
A: The value was 1.7 fold.

Q: And the “% Measured Basolateral, TDF (median), with inhibitor(s)” value ([1]; Caco-2 A to B, 10 μM, 120 min)?
A: Its value is 1.45%.

Q: What about the “% Measured Basolateral, TNF (median), with inhibitor(s)” value ([1]; Caco-2 A to B, 10 μM, 120 min) of the same substance?
A: Its value is 0.30%.

Q: And the “% Measured Basolateral, TNF-ME (median), with inhibitor(s)” value ([1]; Caco-2 A to B, 10 μM, 120 min)?
A: The value was 1.27%.

Q: And the “Fraction of IV (bioavailability), with inhibitor(s)” value [2]?
A: The value was 47.5%.
